This is an account of results in patent publication US20050260212A1 (PDL BIOPHARMA, published 2005).

This experiment deals with T1, murine LFL2-Fc fusion (mouse; human, UniProt Q80X72 22-536; P01857 99-330 = IgG part, limits assumed).
T1 construct: extracellular domain;domain: constant region of the human gamma 1 immunoglobulin heavy chain; 'Generated as described above for human LFL2'; also called Mouse LFL2-Fc
Description: SPR (BIAcore 3000), mAb immobilised on CM5, LFL2-Fc analyte, bivalent analyte model. As for the experimental part: Kinetics measurements between human LFL2-Fc fusion protein and anti-LFL2 mAbs were performed using BIAcore 3000™ (BIAcore™, Sweden). Anti-LFL2 mAbs were immobilized with 100 RUs on Research-grade CM5 sensor chip by the BIAcore amine coupling reagents (N-ethyl-N′-dimethylaminopropylcarbodiimide, EDC; N-hydroxysuccinimide, NHS; and ethanolamine HCl, pH8.5). Assays were run at a flow rate of 30 ul/min at room temperature. Three-minute association phase of each LFL2-Fc was followed by ten-minute injection of running buffer (10 mM Hepes, 300 mM sodium chloride, 3 mM EDTA, 0.05% P-20, pH7.4) to monitor dissociation. The mAb surface was regenerated with 25 mM NaOH. The binding kinetics of each LFL2-mAb pair was calculated from the data at six different concentrations (2048 nM, 512 nM, 128 nM, 32 nM, 8 nM, 2 nM) of LFL2-Fc analyte, using the BIAevaluate program. Double referencing was applied in each analysis to eliminate background responses from reference surface and buffer only control. The affinity (KD) of binding was obtained by simultaneously fitting the association and dissociation phases of the sensorgram from the analyte concentration series using the bivalent analyte model from BIAevaluate software.
A general note: SPR reads the build-up and loss of mass on a sensor chip optically.

B1: anti-LFL2 mAb M25 (antibody, V domains shown)
VH: QVQLQQSGAELMKPGASVKISCKATGYKFSSYWIEWVKQRPGHGLEWIGEILPGSDTTNYNEKFKDKATFTSDTSSNTAYMQLSSLTSEDSAVYYCARDRGNYRAWFGYWGQGTLVTVS
VL: DIQMTQTSSLSASLGDRVTISCRASQDISNYLNWYQQKPDGTVKFLIYYTSRLHSGVPSRFSGSGSGTDYSLTISYLEPEDIATYFCQQGEALPWTFGGGTKLEIKR
With B1, the Kd came to 0.87 nM.
